Earlier results in US20020151467A1, “Methods and compositions for oral insulin delivery” (priority 2000, published 2002).

Details: oral, under the best conditions (Damge, 1997); cited from earlier work

insulin
fraction of orally administered insulin absorbed: Less than 0.5%
